Results reported in patent publication US5935995A, “Prodrugs for the therapy of tumors and inflammatory disorders” (Heochst Aktiengesellschaft, priority 1996, dated 1999).

Amino acid sequences for entries named in this document (tags omitted).
UniProt P05804, whole entry: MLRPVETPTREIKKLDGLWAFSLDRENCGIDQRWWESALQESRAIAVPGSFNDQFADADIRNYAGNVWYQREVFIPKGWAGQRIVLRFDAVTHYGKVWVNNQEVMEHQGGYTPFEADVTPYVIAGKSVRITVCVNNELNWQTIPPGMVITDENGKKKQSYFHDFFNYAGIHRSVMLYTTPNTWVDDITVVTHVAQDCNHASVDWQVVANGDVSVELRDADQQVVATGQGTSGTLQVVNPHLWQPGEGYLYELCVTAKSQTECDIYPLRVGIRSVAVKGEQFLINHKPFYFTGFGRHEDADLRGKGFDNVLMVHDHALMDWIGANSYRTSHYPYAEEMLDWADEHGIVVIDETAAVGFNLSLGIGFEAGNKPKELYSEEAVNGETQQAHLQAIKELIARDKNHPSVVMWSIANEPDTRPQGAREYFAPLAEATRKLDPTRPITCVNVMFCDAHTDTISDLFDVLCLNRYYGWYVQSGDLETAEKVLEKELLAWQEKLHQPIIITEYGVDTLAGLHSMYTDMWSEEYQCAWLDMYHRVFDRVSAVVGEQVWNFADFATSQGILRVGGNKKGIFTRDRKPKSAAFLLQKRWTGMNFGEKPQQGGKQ

Biological target: E. coli β-glucuronidase (Sigma) (Escherichia coli, UniProt P05804)
Assay: Enzymatic cleavage of F 373 on incubation with E. coli β-glucuronidase, HPLC analysis
Details: 37° C., pH 7.2, with β-glucuronidase, starting from F 373
Protocol: On incubation with b-glucuronidase, the prodrug F 373 (compound 11) is cleaved enzymatically to an aromatic nitrogen mustard gas derivative (4-[N,N-bis(2-chloroethyl)amino]phenol) (compound 7), glucuronic acid and the spacer.
The prodrug F 373 is stable in solution in anhydrous DMSO. To investigate the cleavability, […] of F 373 solution (5 mg/ml in DMSO) were treated with 180 ml of 0.02 M phosphate buffer pH 7.2 and 10 ml of E. coli β-glucuronidase (Sigma) (330 mg/ml) and the mixture was incubated at 37° C. 25 ml batches were diluted with 225 ml of 0.1 M phosphate buffer pH 3.0 (85%) and acetonitrile (15%) and immediately analyzed with the aid of the following HPLC system.
The HPLC system used consisted of a gradient pump (Gynkotek, Model 480), an autosampler (Abimed, Model 231/401), a UV detector (Beckman, Model 166, detection wavelength 212 nm) and an analysis unit (Beckman, System Gold). The separations were carried out on an RP column (Zorbax SB-C 18, 5 mm, 125×4.6 mm). The mobile phase was formed from two components according to the following scheme:
B--0.02 M phosphate buffer pH 3.0

Oc1ccc(N(CCCl)CCCl)cc1
peak area (HPLC) (0 min): 0 | peak area (HPLC) (1 min): 3.32 | peak area (HPLC) (5 min): 7.43 | peak area (HPLC) (7 min): 7.33 | peak area (HPLC) (10 min): 6.79 | peak area (HPLC) (15 min): 5.58 | peak area (HPLC) (25 min): 4.00 | peak area (HPLC) (60 min): 0.88
